Test results taken from PubChem BioAssay (NCI).
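These data come from cells grown in 96-well plates and exposed to compound for 48 hours at five concentrations. GI50: concentration for 50% inhibition of growth.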

What was measured:
Assay in all cases: NCI-60 cell line screen, 48 h; in the data active means GI50 below about 0.43 µM; inactive means the rest
HCT-116 colon = test system: HCT-116 colon
T-47D breast = test system: T-47D breast
KM12 colon = test system: KM12 colon
NCI-H226 lung = test system: NCI-H226 lung
MOLT-4 leukemia = test system: MOLT-4 leukemia
EKVX NSCLC = test system: EKVX NSCLC
OVCAR-4 ovarian = test system: OVCAR-4 ovarian
SK-MEL-2 melanoma = test system: SK-MEL-2 melanoma
NCI-H522 lung = test system: NCI-H522 lung
A498 renal = test system: A498 renal
UACC-257 melanoma = test system: UACC-257 melanoma
HCC-2998 colon = test system: HCC-2998 colon
SK-MEL-5 melanoma = test system: SK-MEL-5 melanoma
ACHN renal = test system: ACHN renal
HT29 colon = test system: HT29 colon
SW-620 colon = test system: SW-620 colon
NCI/ADR-RES ovarian = test system: NCI/ADR-RES ovarian
U251 CNS = test system: U251 CNS
NCI-H23 lung = test system: NCI-H23 lung
M14 melanoma = test system: M14 melanoma
NCI-H460 lung = test system: NCI-H460 lung
HCT-15 colon = test system: HCT-15 colon
SNB-19 CNS = test system: SNB-19 CNS
UO-31 renal = test system: UO-31 renal
COLO 205 colon = test system: COLO 205 colon
MALME-3M melanoma = test system: MALME-3M melanoma
SF-268 CNS = test system: SF-268 CNS
CCRF-CEM leukemia = test system: CCRF-CEM leukemia
LOX IMVI melanoma = test system: LOX IMVI melanoma
MCF7 breast = test system: MCF7 breast
786-0 renal = test system: 786-0 renal
TK-10 renal = test system: TK-10 renal
BT-549 breast = test system: BT-549 breast
HOP-62 NSCLC = test system: HOP-62 NSCLC
PC-3 prostate = test system: PC-3 prostate
UACC-62 melanoma = test system: UACC-62 melanoma
SK-OV-3 ovarian = test system: SK-OV-3 ovarian
OVCAR-8 ovarian = test system: OVCAR-8 ovarian
CAKI-1 renal = test system: CAKI-1 renal
HOP-92 NSCLC = test system: HOP-92 NSCLC
SK-MEL-28 melanoma = test system: SK-MEL-28 melanoma
OVCAR-5 ovarian = test system: OVCAR-5 ovarian
MDA-MB-231 breast = test system: MDA-MB-231 breast
NCI-H322M lung = test system: NCI-H322M lung
SN12C renal = test system: SN12C renal
A549 NSCLC = test system: A549 NSCLC
K-562 leukemia = test system: K-562 leukemia
SF-295 CNS = test system: SF-295 CNS
IGROV1 ovarian = test system: IGROV1 ovarian
OVCAR-3 ovarian = test system: OVCAR-3 ovarian
HS 578T breast = test system: HS 578T breast
DU-145 prostate = test system: DU-145 prostate

Measured: GI50

CN(C)CCn1c(Cn2nc3ccccc3n2)nc2cc(Cl)ccc21
inactive: HCT-116 colon 61 µM | T-47D breast 24.8 µM | KM12 colon 47.9 µM | NCI-H226 lung > 100 µM | MOLT-4 leukemia 19.9 µM | EKVX NSCLC 75.8 µM | OVCAR-4 ovarian 36.6 µM | SK-MEL-2 melanoma > 100 µM | NCI-H522 lung 27.9 µM | A498 renal 28.2 µM | UACC-257 melanoma 63.3 µM | HCC-2998 colon 27.1 µM | SK-MEL-5 melanoma 39.4 µM | ACHN renal 65.7 µM | HT29 colon 91.8 µM | SW-620 colon > 100 µM | NCI/ADR-RES ovarian 60.5 µM | U251 CNS > 100 µM | NCI-H23 lung 55.3 µM | M14 melanoma 37.1 µM | NCI-H460 lung > 100 µM | HCT-15 colon > 100 µM | SNB-19 CNS > 100 µM | UO-31 renal 9.08 µM | COLO 205 colon 43.8 µM | MALME-3M melanoma 29.8 µM | SF-268 CNS > 100 µM | CCRF-CEM leukemia 31.6 µM | LOX IMVI melanoma 89.7 µM | MCF7 breast 48.6 µM | 786-0 renal 85.7 µM | TK-10 renal > 100 µM | BT-549 breast 63.5 µM | HOP-62 NSCLC > 100 µM | PC-3 prostate > 100 µM | UACC-62 melanoma > 100 µM | SK-OV-3 ovarian > 100 µM | OVCAR-8 ovarian 65.6 µM | CAKI-1 renal 85.1 µM | HOP-92 NSCLC 30.3 µM | SK-MEL-28 melanoma > 100 µM | OVCAR-5 ovarian > 100 µM | MDA-MB-231 breast > 100 µM | NCI-H322M lung > 100 µM | SN12C renal 72.7 µM | A549 NSCLC 53.3 µM | K-562 leukemia 35.9 µM | SF-295 CNS 84.5 µM | IGROV1 ovarian > 100 µM | OVCAR-3 ovarian > 100 µM | HS 578T breast > 100 µM | DU-145 prostate > 100 µM
